# Test results taken from patent US11547697B2, “Heterocyclic compounds and uses thereof” (MILLENNIUM PHARMACEUTICALS, INC., priority 2009, dated 2023).
# Chains of the proteins cited; added tags and fusions are not shown. Lines headed by an entry give the natural chain unless they say otherwise; changes in a name come on top.
# UniProt P48736: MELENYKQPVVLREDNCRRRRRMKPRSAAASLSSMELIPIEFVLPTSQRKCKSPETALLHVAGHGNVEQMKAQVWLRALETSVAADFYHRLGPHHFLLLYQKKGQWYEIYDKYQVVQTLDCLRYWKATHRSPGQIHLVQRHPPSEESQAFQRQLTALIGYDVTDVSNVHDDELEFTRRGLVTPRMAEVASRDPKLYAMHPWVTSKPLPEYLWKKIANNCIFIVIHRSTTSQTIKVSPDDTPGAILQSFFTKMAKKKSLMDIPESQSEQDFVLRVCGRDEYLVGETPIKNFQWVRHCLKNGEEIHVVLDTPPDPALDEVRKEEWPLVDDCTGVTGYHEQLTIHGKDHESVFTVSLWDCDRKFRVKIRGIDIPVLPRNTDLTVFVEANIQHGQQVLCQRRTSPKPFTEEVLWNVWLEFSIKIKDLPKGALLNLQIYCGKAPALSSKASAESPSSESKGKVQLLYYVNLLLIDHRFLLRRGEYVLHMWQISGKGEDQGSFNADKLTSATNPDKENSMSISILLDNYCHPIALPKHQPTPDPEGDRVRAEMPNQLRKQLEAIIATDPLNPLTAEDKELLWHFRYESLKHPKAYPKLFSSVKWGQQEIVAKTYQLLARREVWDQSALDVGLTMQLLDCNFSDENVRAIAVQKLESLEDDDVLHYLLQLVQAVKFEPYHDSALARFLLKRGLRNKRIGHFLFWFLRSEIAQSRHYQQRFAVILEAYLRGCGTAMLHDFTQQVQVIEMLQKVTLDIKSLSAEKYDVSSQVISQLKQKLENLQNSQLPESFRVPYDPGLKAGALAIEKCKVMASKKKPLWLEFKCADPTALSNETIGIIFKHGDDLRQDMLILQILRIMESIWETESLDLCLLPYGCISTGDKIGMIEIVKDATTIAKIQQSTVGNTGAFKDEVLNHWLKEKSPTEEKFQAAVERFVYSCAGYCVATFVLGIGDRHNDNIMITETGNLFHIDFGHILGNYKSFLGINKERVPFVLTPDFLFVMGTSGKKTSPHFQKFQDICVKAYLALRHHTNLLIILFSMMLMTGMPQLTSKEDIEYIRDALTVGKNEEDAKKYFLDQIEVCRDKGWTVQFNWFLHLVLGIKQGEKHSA
# UniProt O00329: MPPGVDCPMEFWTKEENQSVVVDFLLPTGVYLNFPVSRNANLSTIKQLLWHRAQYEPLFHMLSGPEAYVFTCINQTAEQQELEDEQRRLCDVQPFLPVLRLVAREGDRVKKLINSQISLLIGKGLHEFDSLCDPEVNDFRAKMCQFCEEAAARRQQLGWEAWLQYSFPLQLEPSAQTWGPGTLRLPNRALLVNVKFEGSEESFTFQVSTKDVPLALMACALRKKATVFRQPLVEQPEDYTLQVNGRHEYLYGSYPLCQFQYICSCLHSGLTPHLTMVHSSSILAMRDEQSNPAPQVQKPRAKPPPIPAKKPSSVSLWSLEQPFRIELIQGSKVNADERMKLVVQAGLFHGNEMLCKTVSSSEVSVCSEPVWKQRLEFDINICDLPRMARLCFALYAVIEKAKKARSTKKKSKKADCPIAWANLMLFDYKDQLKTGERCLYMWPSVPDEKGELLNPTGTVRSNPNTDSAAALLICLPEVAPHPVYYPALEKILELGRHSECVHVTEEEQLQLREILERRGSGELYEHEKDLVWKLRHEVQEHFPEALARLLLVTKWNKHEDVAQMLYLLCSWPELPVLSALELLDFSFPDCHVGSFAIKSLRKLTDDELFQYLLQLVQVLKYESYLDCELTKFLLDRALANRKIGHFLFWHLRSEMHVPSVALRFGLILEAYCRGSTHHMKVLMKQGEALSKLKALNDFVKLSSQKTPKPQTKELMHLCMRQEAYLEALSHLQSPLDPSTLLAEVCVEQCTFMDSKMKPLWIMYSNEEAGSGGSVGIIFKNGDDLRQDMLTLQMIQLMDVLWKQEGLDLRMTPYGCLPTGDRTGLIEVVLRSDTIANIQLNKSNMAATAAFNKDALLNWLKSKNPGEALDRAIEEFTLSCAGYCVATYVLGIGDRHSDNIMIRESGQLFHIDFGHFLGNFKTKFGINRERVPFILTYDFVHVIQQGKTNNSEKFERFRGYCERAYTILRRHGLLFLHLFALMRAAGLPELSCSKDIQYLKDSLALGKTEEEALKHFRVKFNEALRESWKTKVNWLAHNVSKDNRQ
# UniProt P42338: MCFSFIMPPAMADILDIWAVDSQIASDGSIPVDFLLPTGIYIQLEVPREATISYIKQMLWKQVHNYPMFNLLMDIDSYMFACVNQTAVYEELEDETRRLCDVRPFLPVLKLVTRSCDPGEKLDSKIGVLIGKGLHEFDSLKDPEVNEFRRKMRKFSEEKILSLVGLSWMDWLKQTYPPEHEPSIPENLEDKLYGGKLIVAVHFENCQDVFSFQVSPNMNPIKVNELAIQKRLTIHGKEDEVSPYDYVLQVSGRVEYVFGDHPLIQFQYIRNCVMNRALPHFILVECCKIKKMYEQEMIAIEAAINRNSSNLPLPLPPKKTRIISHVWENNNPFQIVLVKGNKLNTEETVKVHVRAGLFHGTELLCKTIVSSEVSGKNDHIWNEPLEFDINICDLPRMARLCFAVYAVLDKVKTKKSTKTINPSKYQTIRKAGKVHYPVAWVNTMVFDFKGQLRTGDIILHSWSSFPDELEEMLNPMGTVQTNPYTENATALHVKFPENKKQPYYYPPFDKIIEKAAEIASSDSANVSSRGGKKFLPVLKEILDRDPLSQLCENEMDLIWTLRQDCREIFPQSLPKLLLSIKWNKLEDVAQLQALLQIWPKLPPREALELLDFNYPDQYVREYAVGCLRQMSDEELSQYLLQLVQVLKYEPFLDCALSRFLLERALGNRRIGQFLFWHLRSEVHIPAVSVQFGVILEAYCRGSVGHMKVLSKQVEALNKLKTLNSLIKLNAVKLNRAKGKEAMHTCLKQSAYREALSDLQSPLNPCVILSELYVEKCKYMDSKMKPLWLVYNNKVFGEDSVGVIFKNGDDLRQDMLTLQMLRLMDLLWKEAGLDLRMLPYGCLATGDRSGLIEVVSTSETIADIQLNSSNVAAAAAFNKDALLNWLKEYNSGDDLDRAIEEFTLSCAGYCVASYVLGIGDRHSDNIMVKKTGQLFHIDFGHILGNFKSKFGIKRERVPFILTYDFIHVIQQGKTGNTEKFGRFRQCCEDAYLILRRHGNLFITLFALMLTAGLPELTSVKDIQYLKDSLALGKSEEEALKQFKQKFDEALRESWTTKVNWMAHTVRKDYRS
# UniProt P42336, whole entry: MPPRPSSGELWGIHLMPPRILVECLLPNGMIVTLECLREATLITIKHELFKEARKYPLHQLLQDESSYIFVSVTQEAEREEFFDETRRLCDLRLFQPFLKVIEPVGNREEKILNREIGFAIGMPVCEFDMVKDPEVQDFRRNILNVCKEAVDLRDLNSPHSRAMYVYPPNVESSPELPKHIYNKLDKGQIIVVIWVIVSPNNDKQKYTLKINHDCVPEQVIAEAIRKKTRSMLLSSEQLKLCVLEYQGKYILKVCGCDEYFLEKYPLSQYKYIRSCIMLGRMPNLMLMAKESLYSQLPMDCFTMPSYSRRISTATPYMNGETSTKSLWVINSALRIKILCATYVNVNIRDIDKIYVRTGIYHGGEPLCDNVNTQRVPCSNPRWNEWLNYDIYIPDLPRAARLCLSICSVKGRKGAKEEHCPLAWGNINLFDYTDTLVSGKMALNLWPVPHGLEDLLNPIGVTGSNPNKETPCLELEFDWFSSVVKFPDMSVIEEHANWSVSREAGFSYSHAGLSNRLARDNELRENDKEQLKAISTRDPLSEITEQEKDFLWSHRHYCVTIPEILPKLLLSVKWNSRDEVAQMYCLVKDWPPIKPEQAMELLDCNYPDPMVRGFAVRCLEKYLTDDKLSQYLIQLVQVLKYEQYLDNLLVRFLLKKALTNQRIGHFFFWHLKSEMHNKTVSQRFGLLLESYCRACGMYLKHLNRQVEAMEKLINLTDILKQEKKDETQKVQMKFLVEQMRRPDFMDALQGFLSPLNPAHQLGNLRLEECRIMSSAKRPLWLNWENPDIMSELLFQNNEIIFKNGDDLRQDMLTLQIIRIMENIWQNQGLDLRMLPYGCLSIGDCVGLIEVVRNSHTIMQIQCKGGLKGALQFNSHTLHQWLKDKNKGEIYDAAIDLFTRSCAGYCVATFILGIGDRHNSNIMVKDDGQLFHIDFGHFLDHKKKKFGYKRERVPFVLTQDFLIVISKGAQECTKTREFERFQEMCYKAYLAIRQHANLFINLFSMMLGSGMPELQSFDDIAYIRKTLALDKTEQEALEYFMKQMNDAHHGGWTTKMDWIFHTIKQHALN
# What was measured:
# Format in all cases: biochemical
# [1] = target: p110γ (Homo sapiens (Human), UniProt P48736); test: PI 3-Kinase (human) HTRF assay, p110γ; conditions: read-out: PI3K γ IC50
# [2] = target: recombinant mTOR (Homo sapiens (Human), UniProt P42345); test: mTOR inhibition assay (radiometric or LanthaScreen TR-FRET); conditions: read-out: MTORC IC50
# [3] = target: p110δ/p85α (Homo sapiens (Human), UniProt O00329); test: PI 3-Kinase (human) HTRF assay, p110δ/p85α; conditions: read-out: PI3K δ IC50
# [4] = target: p110β/p85α (Homo sapiens (Human), UniProt P42338); test: PI 3-Kinase (human) HTRF assay, p110β/p85α; conditions: read-out: PI3K β IC50
# Description: (§1) Both percent inhibition and IC50 for DYRK1A, HIPK3, and CLK1 kinases are also provided.
# [5] = target: p110α/p85α (Homo sapiens (Human), UniProt P42336); test: PI 3-Kinase (human) HTRF assay, p110α/p85α; conditions: read-out: PI3K α IC50
# Description: as §1
smiles,measurement,setting,value
Nc1nc2cc(-c3ccc4ncnc(N5CCOCC5)c4c3)ccc2o1 [compound 22],IC50,[1],< 0.1 µM
same,IC50,[2],< 1 µM
same,IC50,[3],< 0.1 µM
same,IC50,[4],< 0.1 µM
same,IC50,[5],< 0.1 µM
